Test results taken from patent US7364741.

Target: HLA-A2.1 molecules expressed by 174CEM.T2 cells (human)
Experiment: T2 HLA-A2.1 stabilisation, flow cytometry (BB7.2), peptide 200 ug/ml

KLPQLCTEL (modifications not checked) [… (residues 18-26 of HPV16 protein E6)]
MF (mean fluorescence): 169
